The values below are quoted from earlier work in article PMC9454457 (Journal of Nuclear Medicine, 2022).

The chains behind the UniProt entries cited, without tags or fusion partners. Where a name states a change or a piece, a line headed by the entry shows the natural chain unless it says otherwise.
UniProt P30550: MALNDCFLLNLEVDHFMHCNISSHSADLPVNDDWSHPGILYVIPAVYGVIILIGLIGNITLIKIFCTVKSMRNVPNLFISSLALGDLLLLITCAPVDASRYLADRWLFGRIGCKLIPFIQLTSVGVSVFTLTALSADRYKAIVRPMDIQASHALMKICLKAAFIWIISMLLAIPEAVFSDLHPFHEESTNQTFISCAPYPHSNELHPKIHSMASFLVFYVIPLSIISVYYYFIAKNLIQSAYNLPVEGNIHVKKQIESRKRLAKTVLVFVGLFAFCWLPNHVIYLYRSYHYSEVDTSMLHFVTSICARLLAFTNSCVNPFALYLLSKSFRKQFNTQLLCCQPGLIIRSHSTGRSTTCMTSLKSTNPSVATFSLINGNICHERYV

For the data set, the target named is T1, GRPR (Homo sapiens, UniProt P30550).
T1 construct: endogenous in cells; host or cells: PC-3 cells
Further details: method as in PMID 20717822, PMID 29137110, PMID 29556947, PMID 25684649. As to conditions: literature values; read-out: IC50 values reported; cited from earlier work.

As for “^natIn-RM2: natIn complex of RM2, literature value”, the half-maximal inhibitory concentration (IC50) is 9.3 nM.

For orientation: IC50 means the point on the concentration scale where inhibition reaches its midpoint.
